Results on one molecule are retold here after ChEMBL document CHEMBL1649335 (Bioorg Med Chem, 2010).

For test [1], the species on record is Homo sapiens. Kind of test: Selectivity ratio, ratio of Ki for human ERG to Ki for human NOP receptor.
The species entered for test [2] is Homo sapiens. Kind of test: Selectivity ratio, ratio of Ki for human DOP receptor to Ki for human NOP receptor.
Test [3] is filed under the species Homo sapiens. Kind of test: Selectivity ratio, ratio of Ki for human KOP receptor to Ki for human NOP receptor.
For test [4], the species on record is Homo sapiens. Nature of the test: Selectivity ratio, ratio of Ki for human MOP receptor to Ki for human NOP receptor.

For the molecule `OCC1(N2CCC(n3c(N4CC5CNCC5C4)nc4ccccc43)CC2)CCCCCCC1` (centres undefined), the Ratio Ki in the test listed under Homo sapiens [1] was 2570; in the test listed under Homo sapiens [2] it was above 3470; in the test listed under Homo sapiens [3], above 400; in the test listed under Homo sapiens [4] it was 140.
